{"sequences": {"note": "The chains behind the UniProt entries cited, without tags or fusion partners. Residues count along the entry.", "UniProt O00408, 2-941": "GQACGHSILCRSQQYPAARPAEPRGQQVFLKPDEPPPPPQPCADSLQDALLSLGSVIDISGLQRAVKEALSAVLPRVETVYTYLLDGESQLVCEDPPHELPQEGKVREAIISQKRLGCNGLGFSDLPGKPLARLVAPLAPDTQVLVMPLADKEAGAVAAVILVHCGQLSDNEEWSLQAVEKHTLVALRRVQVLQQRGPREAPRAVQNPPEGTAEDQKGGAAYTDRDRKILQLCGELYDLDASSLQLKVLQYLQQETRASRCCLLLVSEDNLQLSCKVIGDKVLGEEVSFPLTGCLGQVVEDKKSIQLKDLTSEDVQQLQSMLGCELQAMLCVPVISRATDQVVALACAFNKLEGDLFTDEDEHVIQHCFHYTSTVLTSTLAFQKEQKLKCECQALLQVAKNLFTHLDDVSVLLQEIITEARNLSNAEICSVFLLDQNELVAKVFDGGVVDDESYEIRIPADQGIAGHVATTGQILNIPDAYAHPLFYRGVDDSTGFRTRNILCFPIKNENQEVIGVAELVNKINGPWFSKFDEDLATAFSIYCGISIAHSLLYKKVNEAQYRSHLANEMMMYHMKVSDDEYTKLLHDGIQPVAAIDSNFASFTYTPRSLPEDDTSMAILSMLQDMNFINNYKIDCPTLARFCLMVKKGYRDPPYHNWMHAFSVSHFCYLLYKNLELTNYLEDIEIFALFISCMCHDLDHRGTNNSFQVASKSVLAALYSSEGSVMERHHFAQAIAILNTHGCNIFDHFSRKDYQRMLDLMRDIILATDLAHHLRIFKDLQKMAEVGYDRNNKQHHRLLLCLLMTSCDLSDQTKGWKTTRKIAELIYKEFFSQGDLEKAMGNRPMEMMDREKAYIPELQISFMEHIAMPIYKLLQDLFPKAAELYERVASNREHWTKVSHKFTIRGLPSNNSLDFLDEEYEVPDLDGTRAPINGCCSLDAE"}, "source": "patent US11186582B2", "about": "“Substituted [1,2,4]triazolo[1,5-a]pyrimidin-7-yl compounds as PDE2 inhibitors” (DART NEUROSCIENCE (CAYMAN) LTD., priority 2014, dated 2021)", "note": "pIC50: −log10 of the molar value."}
{"target": "FLAG-tagged PDE2A1 (amino acids 2-941) (Homo sapiens (Human), UniProt O00408)", "assay": "IMAP TR-FRET PDE2A phosphodiesterase enzymatic assay", "details": "not given"}
{"smiles": "Cc1cc([C@@H]2CN(C(=O)c3cc(F)c(F)c(F)c3)CC(F)(F)C2)n2ncnc2n1", "note": "[Example 311, (5S)-3,3-Difluoro-5-{5-methyl-[1,2,4]triazolo[1,5-a]pyrimidin-7-yl}-1-(3,4,5-trifluorobenzoyl)piperidine]", "pIC50": "6.00 to 7.00"}
{"smiles": "Cc1cc([C@@H]2CN(C(=O)c3ccc(F)c(C4CC4)c3)CCO2)n2ncnc2n1", "note": "[Example 318, (2S)-4-(3-Cyclopropyl-4-fluorobenzoyl)-2-{5-methyl-[1,2,4]triazolo[1,5-a]pyrimidin-7-yl}morpholine]", "pIC50": "6.00 to 7.00"}
{"smiles": "Cc1cc([C@@H]2CN(C(=O)c3cc(F)c(F)c(C4CC4)c3)CCO2)n2ncnc2n1", "note": "[Example 320, (2S)-4-(3-Cyclopropyl-4,5-difluorobenzoyl)-2-{5-methyl-[1,2,4]triazolo[1,5-a]pyrimidin-7-yl}morpholine]", "pIC50": "6.00 to 7.00"}
{"smiles": "Cc1cc([C@@H]2CN(C(=O)c3ccc(C4CC4)c(F)c3)CCO2)n2ncnc2n1", "note": "[Example 323, (2S)-4-(4-Cyclopropyl-3-fluorobenzoyl)-2-{5-methyl-[1,2,4]triazolo[1,5-a]pyrimidin-7-yl}morpholine]", "pIC50": "6.00 to 7.00"}
{"smiles": "Cc1cc([C@H]2CN(C(=O)c3ccc(C4CC4)c(F)c3)CCO2)n2ncnc2n1", "note": "[Example 324, (2R)-4-(4-Cyclopropyl-3-fluorobenzoyl)-2-{5-methyl-[1,2,4]triazolo[1,5-a]pyrimidin-7-yl}morpholine]", "pIC50": "5.00 to 6.00"}
{"smiles": "Cc1cc([C@@H]2CN(C(=O)c3ccc(C4CC4)c(F)c3F)CCO2)n2ncnc2n1", "note": "[Example 325, (2S)-4-(4-Cyclopropyl-2,3-difluorobenzoyl)-2-{5-methyl-[1,2,4]triazolo[1,5-a]pyrimidin-7-yl}morpholine]", "pIC50": "6.00 to 7.00"}
{"smiles": "Cc1cc([C@H]2CN(C(=O)c3ccc(C4CC4)c(F)c3F)CCO2)n2ncnc2n1", "note": "[Example 326, (2R)-4-(4-Cyclopropyl-2,3-difluorobenzoyl)-2-{5-methyl-[1,2,4]triazolo[1,5-a]pyrimidin-7-yl}morpholine]", "pIC50": "5.00 to 6.00"}
{"smiles": "Cc1cc([C@H]2CN(C(=O)c3ccc(Br)c(Cl)c3)CCO2)n2ncnc2n1", "note": "[Example 328, (2R)-4-(4-Bromo-3-chlorobenzoyl)-2-{5-methyl-[1,2,4]triazolo[1,5-a]pyrimidin-7-yl}morpholine]", "pIC50": "6.00 to 7.00"}
{"smiles": "Cc1cc(F)cc(C(=O)N2CCO[C@H](c3cc(C)nc4ncnn34)C2)c1", "note": "[Example 332, (2S)-4-(3-Fluoro-5-methylbenzoyl)-2-{5-methyl-[1,2,4]triazolo[1,5-a]pyrimidin-7-yl}morpholine]", "pIC50": "6.00 to 7.00"}
{"smiles": "Cc1cc([C@@H]2CN(C(=O)c3ccc(F)c(C)c3)CCO2)n2ncnc2n1", "note": "[Example 333, (2S)-4-(4-Fluoro-3-methylbenzoyl)-2-{5-methyl-[1,2,4]triazolo[1,5-a]pyrimidin-7-yl}morpholine]", "pIC50": "6.00 to 7.00"}
{"smiles": "Cc1cc([C@@H]2CCCN(C(=O)[C@@H]3COc4ccccc4C3)C2)n2ncnc2n1", "note": "[Example 334, (3R)-1-[(3S)-3,4-Dihydro-2H-1-benzopyran-3-carbonyl]-3-{5-methyl-[1,2,4]triazolo[1,5-a]pyrimidin-7-yl}piperidine]", "pIC50": "5.00 to 6.00"}
{"smiles": "Cc1cc([C@H]2CN(C(=O)c3ccc(C(F)(F)F)c(Br)c3)CCO2)n2ncnc2n1", "note": "[Example 337, (2R)-4-[3-Bromo-4-(trifluoromethyl)benzoyl]-2-{5-methyl-[1,2,4]triazolo[1,5-a]pyrimidin-7-yl}morpholine]", "pIC50": "< 5.00"}
{"smiles": "Cc1cc(C2CN(C(=O)c3cc(C)n(-c4ccc(F)cc4)n3)CCO2)n2ncnc2n1", "note": "(stereo not shown) [Example 345, 4-[1-(4-Fluorophenyl)-5-methyl-1H-pyrazole-3-carbonyl]-2-{5-methyl-[1,2,4]triazolo[1,5-a]pyrimidin-7-yl}morpholine]", "pIC50": "5.00 to 6.00"}
{"smiles": "Cc1cc(C2CN(C(=O)c3cc(C)n(-c4ccc(C(C)C)cc4)n3)CCO2)n2ncnc2n1", "note": "(stereo not shown) [Example 347, 4-{5-Methyl-1-[4-(propan-2-yl)phenyl]-1H-pyrazole-3-carbonyl}-2-{5-methyl-[1,2,4]triazolo[1,5-a]pyrimidin-7-yl}morpholine]", "pIC50": "5.00 to 6.00"}
{"target": "FLAG-tagged PDE2A1 (amino acids 2-941) (Homo sapiens (Human), UniProt O00408)", "assay": "IMAP TR-FRET PDE2A phosphodiesterase enzymatic assay", "details": "IMAP TR-FRET, 200 nM FAM-cAMP substrate, 11-point half-log dose-response"}
{"smiles": "Cc1cc([C@@H]2CN(C(=O)c3cc(Cl)c(Cl)c(Cl)c3)CC(F)(F)C2)n2ncnc2n1", "note": "[Example 312, (5S)-3,3-Difluoro-5-{5-methyl-[1,2,4]triazolo[1,5-a]pyrimidin-7-yl}-1-(3,4,5-trichlorobenzoyl)piperidine]", "PDE2 (pIC50)": ">7"}
{"smiles": "Cc1cc([C@@H]2CN(C(=O)c3cc(Cl)c(F)c(Cl)c3)CC(F)(F)C2)n2ncnc2n1", "note": "[Example 313, (5S)-1-(3,5-Dichloro-4-fluorobenzoyl)-3,3-difluoro-5-{5-methyl-[1,2,4]triazolo[1,5-a]pyrimidin-7-yl}piperidine]", "PDE2 (pIC50)": ">7"}
{"smiles": "Cc1cc([C@@H]2CN(C(=O)c3cc(F)c(F)c(Cl)c3)CC(F)(F)C2)n2ncnc2n1", "note": "[Example 314, (5S)-1-(3-Chloro-4,5-difluorobenzoyl)-3,3-difluoro-5-{5-methyl-[1,2,4]triazolo[1,5-a]pyrimidin-7-yl}piperidine]", "PDE2 (pIC50)": ">7"}
{"smiles": "Cc1cc([C@@H]2CN(C(=O)c3cc(F)c(F)c(Br)c3)CC(F)(F)C2)n2ncnc2n1", "note": "[Example 315, (5S)-1-(3-Bromo-4,5-difluorobenzoyl)-3,3-difluoro-5-{5-methyl-[1,2,4]triazolo[1,5-a]pyrimidin-7-yl}piperidine]", "PDE2 (pIC50)": ">7"}
{"smiles": "Cc1cc([C@@H]2CN(C(=O)c3cccc(C4CC4)c3)CCO2)n2ncnc2n1", "note": "[Example 316, (2S)-4-(3-Cyclopropylbenzoyl)-2-{5-methyl-[1,2,4]triazolo[1,5-a]pyrimidin-7-yl}morpholine]", "PDE2 (pIC50)": ">7"}
{"smiles": "Cc1cc([C@@H]2CN(C(=O)c3cccc(C4CC4)c3)CC(F)(F)C2)n2ncnc2n1", "note": "[Example 317, (5S)-1-(3-Cyclopropylbenzoyl)-3,3-difluoro-5-{5-methyl-[1,2,4]triazolo[1,5-a]pyrimidin-7-yl}piperidine]", "PDE2 (pIC50)": ">7"}
{"smiles": "Cc1cc([C@@H]2CN(C(=O)c3ccc(C4CC4)c(F)c3)CC(F)(F)C2)n2ncnc2n1", "note": "[Example 321, (5S)-1-(4-Cyclopropyl-3-fluorobenzoyl)-3,3-difluoro-5-{5-methyl-[1,2,4]triazolo[1,5-a]pyrimidin-7-yl}piperidine]", "PDE2 (pIC50)": ">7"}
{"smiles": "Cc1cc([C@@H]2CN(C(=O)c3ccc(C4CC4)c(F)c3F)CC(F)(F)C2)n2ncnc2n1", "note": "[Example 322, (5S)-1-(4-Cyclopropyl-2,3-difluorobenzoyl)-3,3-difluoro-5-{5-methyl-[1,2,4]triazolo[1,5-a]pyrimidin-7-yl}piperidine]", "PDE2 (pIC50)": ">7"}
{"smiles": "Cc1cc([C@@H]2CN(C(=O)c3ccc(Br)c(Cl)c3)CC(F)(F)C2)n2ncnc2n1", "note": "[Example 327, (5S)-1-(4-Bromo-3-chlorobenzoyl)-3,3-difluoro-5-{5-methyl-[1,2,4]triazolo[1,5-a]pyrimidin-7-yl}piperidine]", "PDE2 (pIC50)": ">7"}
{"smiles": "Cc1cc([C@@H]2CN(C(=O)c3ccc(Br)c(Cl)c3)CCO2)n2ncnc2n1", "note": "[Example 329, (2S)-4-(4-Bromo-3-chlorobenzoyl)-2-{5-methyl-[1,2,4]triazolo[1,5-a]pyrimidin-7-yl}morpholine]", "PDE2 (pIC50)": ">7"}
{"smiles": "Cc1cc([C@@H]2CN(C(=O)c3ccc(C4CC4)c(Cl)c3)CCO2)n2ncnc2n1", "note": "[Example 330, (2S)-4-(3-Chloro-4-cyclopropylbenzoyl)-2-{5-methyl-[1,2,4]triazolo[1,5-a]pyrimidin-7-yl}morpholine]", "PDE2 (pIC50)": ">7"}
{"smiles": "Cc1cc([C@@H]2CN(C(=O)c3ccc(C4CC4)c(Cl)c3)CC(F)(F)C2)n2ncnc2n1", "note": "[Example 331, (5S)-1-(3-Chloro-4-cyclopropylbenzoyl)-3,3-difluoro-5-{5-methyl-[1,2,4]triazolo[1,5-a]pyrimidin-7-yl}piperidine]", "PDE2 (pIC50)": ">7"}
{"smiles": "Cc1cc([C@H]2CCCN(C(=O)[C@@H]3COc4ccccc4C3)C2)n2ncnc2n1", "note": "[Example 335, (3S)-1-[(3S)-3,4-Dihydro-2H-1-benzopyran-3-carbonyl]-3-{5-methyl-[1,2,4]triazolo[1,5-a]pyrimidin-7-yl}piperidine]", "PDE2 (pIC50)": ">7"}
{"smiles": "Cc1cc([C@H]2CCCN(C(=O)[C@H]3COc4ccccc4C3)C2)n2ncnc2n1", "note": "[Example 336, (3S)-1-[(3R)-3,4-Dihydro-2H-1-benzopyran-3-carbonyl]-3-{5-methyl-[1,2,4]triazolo[1,5-a]pyrimidin-7-yl}piperidine]", "PDE2 (pIC50)": ">7"}
{"smiles": "Cc1cc(C2CN(C(=O)c3ccc(Cl)c(I)c3)CC(F)(F)C2)n2ncnc2n1", "note": "(stereo not shown) [Example 339, 1-[(4-Chloro-3-iodophenyl)carbonyl]-3,3-difluoro-5-{5-methyl-[1,2,4]triazolo[1,5-a]pyrimidin-7-yl}piperidine]", "PDE2 (pIC50)": ">7"}
{"smiles": "Cc1cc([C@@H]2CN(C(=O)c3ccc4occc4c3)CC(F)(F)C2)n2ncnc2n1", "note": "[Example 341, (5S)-1-(1-Benzofuran-5-carbonyl)-3,3-difluoro-5-{5-methyl-[1,2,4]triazolo[1,5-a]pyrimidin-7-yl}piperidine]", "PDE2 (pIC50)": ">7"}
{"smiles": "COc1ccc(C(=O)N2CCO[C@H](c3cc(C)nc4ncnn34)C2)cc1C", "note": "[Example 343, (2S)-4-(4-Methoxy-3-methylbenzoyl)-2-{5-methyl-[1,2,4]triazolo[1,5-a]pyrimidin-7-yl}morpholine]", "PDE2 (pIC50)": ">7"}
{"smiles": "Cc1cc(C2CCCN(C(=O)C3COc4ccc(F)cc4C3)C2)n2ncnc2n1", "note": "(stereo not shown) [Example 344, 1-(6-Fluoro-3,4-dihydro-2H-1-benzopyran-3-carbonyl)-3-{5-methyl-[1,2,4]triazolo[1,5-a]pyrimidin-7-yl}piperidine]", "PDE2 (pIC50)": ">7"}
{"smiles": "Cc1cc(C2CCCN(C(=O)c3cc(C)n(-c4ccc(C(C)C)cc4)n3)C2)n2ncnc2n1", "note": "(stereo not shown) [Example 346, 1-{5-Methyl-1-[4-(propan-2-yl)phenyl]-1H-pyrazole-3-carbonyl}-3-{5-methyl-[1,2,4]triazolo[1,5-a]pyrimidin-7-yl}piperidine]", "PDE2 (pIC50)": ">7"}
{"smiles": "Cc1cc(C2CCCN(C(=O)c3ccc4cc(F)ccc4c3)C2)n2ncnc2n1", "note": "(stereo not shown) [Example 348, 1-[(6-Fluoronaphthalen-2-yl)carbonyl]-3-{5-methyl-[1,2,4]triazolo[1,5-a]pyrimidin-7-yl}piperidine]", "PDE2 (pIC50)": ">7"}
